Test results published in US8697372B2, “Method for determining the binding of a given compound to a membrane receptor” (CIS Bio International, priority 2009, dated 2014).

Chains of the proteins cited; added tags and fusions are not shown.
UniProt P14416, whole entry, looked up: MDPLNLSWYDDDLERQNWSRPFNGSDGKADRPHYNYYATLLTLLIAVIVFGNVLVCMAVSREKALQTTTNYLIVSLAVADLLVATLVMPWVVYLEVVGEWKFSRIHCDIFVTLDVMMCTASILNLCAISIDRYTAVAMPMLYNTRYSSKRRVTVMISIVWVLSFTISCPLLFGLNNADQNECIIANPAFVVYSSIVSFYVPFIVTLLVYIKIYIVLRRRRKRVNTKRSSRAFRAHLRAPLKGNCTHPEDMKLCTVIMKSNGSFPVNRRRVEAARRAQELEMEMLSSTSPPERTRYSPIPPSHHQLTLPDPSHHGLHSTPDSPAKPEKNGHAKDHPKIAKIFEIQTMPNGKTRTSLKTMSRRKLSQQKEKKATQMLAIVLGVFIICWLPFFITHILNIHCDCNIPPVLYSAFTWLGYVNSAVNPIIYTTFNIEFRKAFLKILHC

Molecular target: Dopamine D2 receptor implicated in the heterodimer with Delta Opioid (Homo sapiens, UniProt P14416)
Assay: Competitive test against the red antagonist of the dopamine D2 receptor on the heterodimer, Delta Opioid receptor labeled with SNAP-Lumi4Tb
Conditions: 3 nM red antagonist of the dopamine D2 receptor, HEK293T cells, FIG. 11

O=C(CCCN1CCC2(CC1)C(=O)NCN2c1ccccc1)c1ccc(F)cc1
Competition with the fluorescent reference ligand and binding to the heterodimers: compete with the fluorescent reference ligand and bind to the heterodimers
